Patent US20030003050A1 (priority 2001, published 2003)

Tested on: B6μ, Heμ and CXμ mice
Test: tail-flick test
Format: in vivo, mouse
Conditions: CXμ mice vs B6μ and Heμ littermates; 10 mg/kg intraperitoneal; 10 minutes after injection; p<0.05

In the case of `CN(C(=O)Cc1ccc(Cl)c(Cl)c1)[C@H]1CCCC[C@@H]1N1CCCC1.Cl`, the “latency of response to heat stimulus (drug-induced analgesia), tail-flick test” value is reported as “significantly shorter latency than the littermates”.
